Literature values, collected in patent US20070292887A1, “Immunohistochemical Methods” (Bayer Pharmaceuticals Corporation, priority 2003, published 2007).

Test system: keratinocytes (normal skin)
Conditions: before treatment and at approximately day 28 of treatment

COc1cc2ncnc(Nc3ccc(F)c(Cl)c3)c2cc1OCCCN1CCOCC1 [ZD1839]
EGFR signaling pathway in serial skin biopsies: inhibition
